From ChEMBL document CHEMBL5705896 (ACS Chem Biol, 2013) come the findings set out here.

The chains behind the UniProt entries cited, without tags or fusion partners.
UniProt Q15910, whole entry, looked up: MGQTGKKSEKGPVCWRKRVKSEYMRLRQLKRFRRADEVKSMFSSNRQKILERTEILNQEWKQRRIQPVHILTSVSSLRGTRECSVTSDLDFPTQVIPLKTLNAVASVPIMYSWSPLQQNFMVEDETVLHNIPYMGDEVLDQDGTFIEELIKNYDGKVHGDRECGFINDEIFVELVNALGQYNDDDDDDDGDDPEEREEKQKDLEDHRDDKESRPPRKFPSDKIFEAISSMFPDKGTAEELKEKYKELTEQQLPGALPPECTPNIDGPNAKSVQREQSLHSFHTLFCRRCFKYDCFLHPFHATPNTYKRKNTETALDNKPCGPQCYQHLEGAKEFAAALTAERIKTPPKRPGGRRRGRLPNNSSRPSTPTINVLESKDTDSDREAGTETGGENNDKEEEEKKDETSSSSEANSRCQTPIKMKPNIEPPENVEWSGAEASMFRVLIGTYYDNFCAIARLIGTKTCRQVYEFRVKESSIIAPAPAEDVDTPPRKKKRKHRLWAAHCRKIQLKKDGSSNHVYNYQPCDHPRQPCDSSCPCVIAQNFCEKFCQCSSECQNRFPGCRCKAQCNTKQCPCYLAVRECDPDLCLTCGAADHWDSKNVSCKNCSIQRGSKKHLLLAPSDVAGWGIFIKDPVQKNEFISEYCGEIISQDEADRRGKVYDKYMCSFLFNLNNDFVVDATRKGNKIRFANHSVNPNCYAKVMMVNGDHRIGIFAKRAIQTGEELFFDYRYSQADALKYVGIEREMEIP

Molecules are shown by their SMILES. Calls of active or inactive are those of the source. The calls are words filed in the database; no cut-off is given here.

In test [1] the target is T1, Histone-lysine N-methyltransferase EZH2 (Homo sapiens, UniProt Q15910). The note with it: MCF7, dose 5000.0 nM, time 72.0 hrs.
Test [2] addresses T1, Histone-lysine N-methyltransferase EZH2. The note with it: dose <= 5.0 nM.
Test [3] shares this target. The note with it: dose <= 5.0 nM. This is another data set of the same source.
For test [4] the target is unchanged. The note with it: dose <= 5.0 nM. The source holds these as a separate data set.

What is called inhibition is the change of the read-out against control, counted positive when it falls. In the case of `CCCc1cc(C)[nH]c(=O)c1CNC(=O)c1cc(-c2ccc(N3CCN(C(C)C)CC3)nc2)cc2c1cnn2C(C)C`, in test [1], the inhibition stood at 100%. Moreover, the inhibition result in test [2] and in test [3] was “inactive” in each case. The inhibition entry in test [4] is “Active”.
